Measured values taken from patent publication US20070270348A1, “Compositions and Methods for Modulating Insulin-Activated Nitric Oxide Synthase” (priority 2004, published 2007).

Test system: Ehrlich's ascitic carcinoma cells (EAC cells)
Assay: Survival and body weight of mice with Ehrlich's carcinoma ascites
Conditions: EAC injection and oral allimin; from 20.57±0.78 g; control 55.76±1.69 g

Substance: Allimin (XMIPTNGEGLYAGQSLDVEQYKFIMRPDDNLVXYX; X: residue not identified in the source; listed as Allium sp.)
- body weight after peritoneal fluid accumulation: 38.68 ± 1.34 g

Ends that are not written are not given here.
